The list shows a part of the results, in another mix than the full data. Active and inactive are the calls of the source.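 How the source made its calls: active means inhibition of 50% or more; inactive means inhibition below 50%.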
Experiment: blockers of yeast NLRP3/ASC/caspase-1 reporter – luminescence, uHTS, primary screen (AID 2825);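 further: plate controls were induced DMSO wells for no effect and uninduced yeast grown without galactose for full effect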
Conditions: Yeast reconstituted NLRP3/ASC/caspase-1, beta-gal luminescence, 24 h; at 10 µM; active compounds read high

Compound	inhibition
O=[N+]([O-])c1cccc2n[nH]nc12	inactive: 1.79%
CC(=O)N1C2C3N(C(C)=O)C1C1N(C(C)=O)C(C(N1C(C)=O)N3C(C)=O)N2C(C)=O	inactive: -12%
CCc1nc2c(n1)c1c(non1O)c1c2no[n+]1[O-]	inactive: 7.22%
O=[N+]([O-])c1cc([N+](=O)[O-])c(CCNc2ccccc2)c([N+](=O)[O-])c1	inactive: 27.7%
Cc1ccc(NP(=O)(Oc2ccccc2)Oc2ccccc2)nc1	inactive: 18.1%
COc1ccc(C2=NCC(CBr)S2)cc1 (configuration not stated)	inactive: 48.6%
CN(C)C(=O)OCCc1n(C)cc[n+]1C	inactive: 14.2%
CC(C)=N/N=C(\N)N[N+](=O)[O-]	inactive: 13.6%
CC1CCN(C(=O)Oc2c(Cl)cc(Cl)c3cccnc23)CC1	inactive: 13.2%
C[N+]1=C2C=CC=CC=C2SC12C([N+](=O)[O-])=CC([N+](=O)[O-])=C[C-]2[N+](=O)[O-] (configuration not stated)	inactive: 3.97%
Nc1ccc([As](=O)(O)c2ccc(N)cc2)cc1	inactive: 17.8%
CCN(/C(=N/P(=O)(N1CCOCC1)N1CCOCC1)N1CCOCC1)c1ccc(OC)cc1	inactive: 3.37%
O=C(Nc1cc([As](=O)(O)O)ccc1O)c1ccccc1	inactive: 14.2%
O=[N+]([O-])c1cccc(NC2=NCC(CBr)S2)c1 (configuration not stated)	inactive: 3.45%
CC(C)(C)C(=O)NC(Sc1ccncn1)C(Cl)(Cl)Cl (configuration not stated)	inactive: -14%
O=[N+]([O-])c1ncn(CCn2ncnc2[N+](=O)[O-])n1	inactive: 3.46%
Cc1ccc(NP(=O)(Oc2ccccc2F)Oc2ccccc2F)nc1	inactive: 7.69%
CN(C(=O)Cc1ccc(Cl)c(Cl)c1)[C@H]1CCCC[C@@H]1N1CCCC1	inactive: 23.1%
Cc1cc(SC(NC(=O)c2ccc(F)cc2)C(Cl)(Cl)Cl)ncn1 (configuration not stated)	inactive: -6.96%
CCOP(=O)(Nc1ccccc1)OCC	inactive: 1.17%
CC(=O)Nc1ccc([As](=O)(O)O)cc1	inactive: 8.07%
O=C(O)c1ccccc1[As](=O)(O)O	inactive: 5.98%
O=P(Nc1nc2ccc(Cl)cc2s1)(c1ccccc1)c1ccccc1	inactive: 2.95%
CCN(N=Nc1nonc1N)c1nonc1N	inactive: 7.75%
O=[N+]([O-])c1cc([N+](=O)[O-])c(CCN2CCOCC2)c([N+](=O)[O-])c1	inactive: 12%
Cc1ccc(OP(=O)(Nc2nccs2)Oc2ccc(C)cc2)cc1	inactive: 4.32%

Compound	inhibition
COc1ccccc1OP(=O)(Nc1ccc(C)cn1)Oc1ccccc1OC	inactive: 11.2%
CN1CCCC(OC(=O)C(c2ccccc2)c2ccccc2)C1 (configuration not stated)	inactive: 10.3%
Clc1ccc(Cl)c(NC2=NCC(CBr)S2)c1 (configuration not stated)	inactive: -1.29%
NC(=O)c1cc([N+](=O)[O-])cc([N+](=O)[O-])c1N	inactive: 12.2%
Cc1ccc(N/C(=N/P(=O)(N2CCOCC2)N2CCOCC2)N2CCOCC2)cc1	inactive: 7.72%
CN(C(=O)Cc1ccc(Cl)c(Cl)c1)[C@H]1CCCC[C@H]1N1CCCC1	inactive: -3.66%
Nc1cc(N)c2nonc2c1[N+](=O)[O-]	inactive: 6.37%
CC(C)CC(=O)NC(Sc1ccc(Cl)cc1)C(Cl)(Cl)Cl (configuration not stated)	inactive: 21.4%
O=C(NC(Sc1ccncn1)C(Cl)(Cl)Cl)c1ccccc1 (configuration not stated)	inactive: -9.19%
Cc1c2non([O-])c-2c(C)[n+](=O)[n+]1[O-]	inactive: 11.4%
Oc1ccccc1CNc1ccccn1	inactive: 18.8%
CC(C)(C)C(=O)NC(Sc1ccccc1)C(Cl)(Cl)Cl (configuration not stated)	inactive: 10.1%
CCOc1ccc(C2=NCC(CBr)S2)cc1 (configuration not stated)	inactive: 44.5%
O=P1(Nc2nc3ccc(Cl)cc3s2)COc2ccccc2O1 (configuration not stated)	inactive: -12%
CC(=O)Nc1ccc(Oc2c([N+](=O)[O-])cc([N+](=O)[O-])cc2[N+](=O)[O-])cc1	inactive: 6.84%
CC(=O)Nc1ccc([As](=O)(O)O)c(O)c1	inactive: -11.4%
CC(=O)c1ccc(N2CC2c2ccncc2)cc1 (configuration not stated)	inactive: 14%
C[C@H]1OP(=O)(Oc2ccccc2)C[C@@H]2O[C@@H]21 (some centres not stated)	inactive: 16.4%
C[C@@H]1C=CCP(=O)(Oc2ccccc2)O1 (some centres not stated)	inactive: -2.09%
Cc1ccccc1CN(C)C(=O)COC(=O)C(O)(c1ccccc1)c1ccccc1	inactive: 10.2%
CCNC(=S)/N=C(\N)N[N+](=O)[O-]	inactive: 8.08%
O=C(NC1CCS(=O)(=O)C1)NP(=S)(Oc1ccccc1)Oc1ccccc1 (configuration not stated)	inactive: 22%
CCOC(=O)NC(Sc1ccccc1)C(Cl)(Cl)Cl (configuration not stated)	inactive: 25.7%
Cc1ccc(NP(=O)(Oc2cccc(C)c2)Oc2cccc(C)c2)nc1	inactive: 20.2%
c1ccc(-c2nn[nH]n2)c(-c2nn[nH]n2)c1	inactive: 8.26%
CN(C)C(=O)Oc1noc2ccccc12	inactive: 14.8%

Compound	inhibition
CC(NC(=O)COC(=O)C(O)(c1ccccc1)c1ccccc1)c1ccccc1 (configuration not stated)	inactive: 15.6%
Cc1ccccc1OP(=O)(Nc1ccccn1)Oc1ccccc1C	inactive: -6.73%
Cc1ccc(OP(=O)(Nc2ccccn2)Oc2ccc(C)cc2)cc1	inactive: 21.3%
CC(=O)NC(SC(=S)N(CC(C)C)CC(C)C)C(Cl)(Cl)Cl (configuration not stated)	inactive: 25.1%
COC(=O)c1cc2c(s1)N=C(c1ccccc1)N(C)P2(=O)N1CCOCC1 (configuration not stated)	inactive: 13%
CCC(=O)N1C2C3N(C(=O)CC)C1C1N(C(=O)CC)C(C(N1C(=O)CC)N3C(=O)CC)N2C(=O)CC	inactive: -2.74%
O=C(OC1CN2CCC1CC2)c1ccccc1 (configuration not stated)	inactive: 4.72%
C[C@H]1OP(=O)(Oc2ccccc2)[C@H](O)[C@H](O)[C@H]1N=[N+]=[N-] (some centres not stated)	inactive: 13.2%
O=P(Nc1nc2ccccc2s1)(c1ccccc1)c1ccccc1	inactive: 6.23%
O=P(Nc1ccccn1)(c1ccc(Br)cc1)c1ccc(Br)cc1	inactive: 14.2%
CN(C)C1(CNC(=O)c2ccc(Cl)c(S(N)(=O)=O)c2)CCCCC1	inactive: 7.72%
C(Cc1nn[nH]n1)Cc1nn[nH]n1	inactive: -8.3%
Nc1ccc([As](=O)(O)c2ccc([N+](=O)[O-])cc2)cc1	inactive: -4.18%
O=C(OC1CN2CCC1CC2)c1cccc(Cl)c1 (configuration not stated)	inactive: 7.06%
O=[N+]([O-])c1ncn(CCn2cnc([N+](=O)[O-])n2)n1	inactive: 0.307%
O=[As](O)(c1ccccc1)c1ccc(O)cc1	inactive: -5.17%
c1nnnn1CCn1cnnn1	inactive: 2.17%
CC(C)C(=O)NC(Sc1ccccc1)C(Cl)(Cl)Cl (configuration not stated)	inactive: 18.1%
O=P(Nc1nccs1)(c1ccccc1)c1ccccc1	inactive: 10.8%
CC(C)(C)C(=O)NC(Sc1ncccn1)C(Cl)(Cl)Cl (configuration not stated)	inactive: 3.85%
Clc1n[nH]nc1-c1nn[nH][15n]1	inactive: -8.24%
CCOP(=O)(Nc1ccc(C)cn1)OCC	inactive: 1.8%
CN(CCCl)Cc1cc(Cl)c(NC2=NCCN2)c(Cl)c1	inactive: 5.59%
CCOP(=O)(NC(=NC(C)c1ccccc1)NC(C)c1ccccc1)OCC (configuration not stated)	inactive: 6.12%
O=P1(Nc2ccccn2)COc2ccccc2OC1	inactive: 7.01%
CCC1=CC2Cc3nc4ccc(Cl)cc4c(N)c3C(C1)C2 (configuration not stated)	inactive: 17%

Compound	inhibition
CC1(CBr)Cn2c(nc3ccccc3c2=O)S1 (configuration not stated)	inactive: -10.8%
O=[As](O)(c1ccccc1Br)c1ccccc1Br	inactive: 3.9%
CC(C)/C=N\N=C(\N)N[N+](=O)[O-]	inactive: 11.7%
CN(C(=O)Cc1ccc(Cl)c(Cl)c1)[C@@H]1CCCC[C@H]1N1CCCC1	inactive: -8.96%
COc1ccccc1CNC(=O)COC(=O)C(O)(c1ccccc1)c1ccccc1	inactive: 5.28%
O=C(/C=C/c1ccccc1)OC1CN2CCC1CC2 (configuration not stated)	inactive: 10.5%
CN(C)C1(CNC(=O)c2ccc(S(C)(=O)=O)cc2)CCCCC1	inactive: 7.47%
CC1CCC(C(C)C)C(OP(=O)(Nc2ccccn2)c2ccccc2)C1 (configuration not stated)	inactive: 19.2%
Cc1ccc(C(=O)OC2CN3CCC2CC3)cc1 (configuration not stated)	inactive: 11.1%
Cc1nn(-c2ccccc2)c2c1P(=O)(N1CCOCC1)N(C)C(c1ccccc1)=N2 (configuration not stated)	inactive: 1.57%
O=[As](O)(c1cccs1)c1cccs1	inactive: -7.03%
Cc1ccc(OCC(=O)OC2CN3CCC2CC3)cc1 (configuration not stated)	inactive: 16.9%
O=P1(Nc2ccc(Br)cn2)COc2ccccc2OC1	inactive: 2.7%
NS(=O)(=O)c1cccc(NC(=O)COC(=O)C(O)(c2ccccc2)c2ccccc2)c1	inactive: 5.73%
Nc1cccc([As](=O)(O)c2ccccc2)c1	inactive: -12.3%
O=P1(Nc2ncccn2)COc2ccccc2OC1	inactive: 5.81%
Nc1ccccc1[As](=O)(O)c1ccccc1	inactive: -1.31%
O=C(O)COc1ccc([As](=O)(O)O)cc1[N+](=O)[O-]	inactive: 9.95%
CS(=O)(=O)c1cc([N+](=O)[O-])c2no[n+]([O-])c2c1	inactive: 19%
O=P(Nc1nccs1)(Oc1ccccc1)Oc1ccccc1	inactive: 3.05%
O=P(Nc1nccs1)(c1ccccc1)c1nc2ccccc2s1 (configuration not stated)	inactive: -13.9%
CCOP1(=S)c2c(C)nn(CCC#N)c2N=C(c2ccccc2F)N1C (configuration not stated)	inactive: 7.89%
CN(C(=O)Cc1ccc(Cl)c(Cl)c1)[C@H]1CC[C@@]2(CCCO2)C[C@@H]1N1CCCC1	inactive: 14.2%
O=[N+]([O-])c1ccc2c(c1)nnn2O	inactive: -5.76%

From PubChem BioAssay AID2825 (Sanford-Burnham Center for Chemical Genomics, 2010)
